scFv variants of Ab-14 (light chain) against a SARS-CoV-2 spike peptide

All variants were tested on one target, the spike HR2 peptide PDVDLGDISGINAS (SARS-CoV-2).

Each scFv is VH, the linker GGGGSGGGGSGGGGS, VL, as in the parent Ab-14, and differs from it in the CDRs of the light chain only.
VH: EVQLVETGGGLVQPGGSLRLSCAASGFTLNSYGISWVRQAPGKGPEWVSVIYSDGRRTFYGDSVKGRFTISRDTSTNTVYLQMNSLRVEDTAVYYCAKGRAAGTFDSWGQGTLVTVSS
VL: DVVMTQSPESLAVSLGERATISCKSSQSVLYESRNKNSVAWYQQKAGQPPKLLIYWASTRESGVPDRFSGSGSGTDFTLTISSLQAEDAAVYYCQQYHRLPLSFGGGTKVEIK

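Phage display of a naive human antibody library on the peptide gave the parent. These sequences belong to a second round, designed from the earlier measurements on random variants of the parent. Several design methods are mixed in this list. The assay is AlphaSeq: two haploid yeast populations carry antibody and antigen on their surface. Binding brings cells together so that they mate, and sequencing counts the barcode pairs among the diploids. Scores were corrected for input abundance and mapped to Kd with protein pairs of known affinity run in the same pool. The assay was run in six technical replicates.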

The parent's light chain CDRs are KSSQSVLYESRNKNSVA, WASTRES, QQYHRLPLS; each variant's own CDRs replace them letter for letter.
Values are log10 of the apparent Kd in nM; lower means stronger binding.
Averages over replicates are reported, and they cover detected replicates only.
Where no diploid with the target was found in any replicate, the entry reads "nd": below detection, most likely a poor binder, though not proof of it.

The variant KLSQSVLYESRNSNSVA, NASTREQ, QQYHRLPLS showed -0.37 (6 of 6 replicates).
The variant KLSQVTHSESRNKNSIA, EMVTREV, QQYDRLPLS showed 1.79 (6 of 6 replicates).
The variant KSSNSTLYESRNKNSVA, WASTRES, QQYHRLPLS showed 3.06 (2 of 6 replicates).
The variant KLYMTTGYESRNKDSIA, DNSTRGR, QQYHRLPLS showed 1.61 (6 of 6 replicates).
The variant IVSQLMLWGWHAKNSIA, EAQTRAN, QQYDRLPLF showed 2.49 (5 of 6 replicates).
The variant KSSQSVDYETRNFNSVA, WASTRWD, QQYHRLPLS showed 2.51 (6 of 6 replicates).
The variant RLLDWAYGWTAKERNIA, DMDIRGA, QQYSHLPLA showed 1.35 (6 of 6 replicates).
The variant KSSQAVEYESENKNSVA, AASKRAS, QQYHRLPLS showed 0.25 (6 of 6 replicates).
The variant KLTHVTFVLDRQKYSIA, DSERKME, QQYNRLPLT showed 1.19 (6 of 6 replicates).
The variant KSPQSVDYESRNKNSVA, NASTRED, QSYHRLPLS showed -0.01 (6 of 6 replicates).
The variant KLSQSVNMTGKNKNSVA, ELSFREK, QQYERLPLA showed 0.51 (2 of 6 replicates).
The variant SLAMLLDQVYAYGSNIA, NAAELVV, QQYYRLPLT showed nd (0 of 6 replicates).
The variant KLSQSVDYESRNKNSVA, NASTRES, QDYHRLPLS showed 0.83 (6 of 6 replicates).
The variant IFSQSVMMGNMTRNSVA, QAQERFN, QQYDRLPLI showed 1.58 (6 of 6 replicates).
The variant TLYGLTNSMSKNKDSVA, EMSTREA, QQYDRLPLI showed 2.01 (6 of 6 replicates).
The variant KSSQSFLYESRNKNSVA, GASTRES, QQYHRLTLF showed nd (0 of 6 replicates).
The variant KLSQSWLYESRNKNSVA, SASTRES, QQYHRLPLS showed 0.11 (6 of 6 replicates).
The variant TLYGLSNSMSINKNNVA, EMTTREK, QQYDRLPLV showed 1.68 (6 of 6 replicates).
The variant MISGSVMSENRLKNSVA, QTTTRES, QQYDRLPLS showed 0.80 (6 of 6 replicates).
The variant KSSQSVLYESRNKNSVA, SASERYS, QQYHRLPLS showed 0.29 (6 of 6 replicates).
The variant NLRMKELGMSYNANNVA, DSENRIK, QQYSRLPLM showed 0.03 (6 of 6 replicates).
The variant KISSLTLYESVNKNSIA, EMSTRPS, QSYHRLPLS showed 0.39 (6 of 6 replicates).
The variant KSSTSVLYESRNKNSVA, WASTRES, QQYHRLPLS showed 1.80 (6 of 6 replicates).
The variant KSSQSVLYESGNKNSVA, DASTRED, QQYHRLPLS showed -1.24 (5 of 6 replicates).
The variant KSSQSVLYESRNKNSVA, WASMRES, QSYHRLPLS showed 1.64 (6 of 6 replicates).
The variant KSSQSGLYELRNKNSVA, WASTRES, QQYTRLPLS showed 1.39 (1 of 6 replicates).
The variant KLEQSVQYESRNKNSVA, NASTRES, QQYHRLPLS showed -0.26 (6 of 6 replicates).
The variant KSSQSVLYESRNKQSVA, WASLRES, QQYHRLPLS showed 3.57 (1 of 6 replicates).
The variant KLSILGLHESIDKKSIA, ERSTREN, QQYHRLPLS showed -0.01 (6 of 6 replicates).
The variant KLSVSMLLESFHKNNVA, ENSTREE, QHYHRLPLS showed 2.04 (6 of 6 replicates).
The variant TISQMMLMQTSHKNSVA, GEETRYN, QQYHRLPLS showed 0.61 (6 of 6 replicates).
The variant KLTMITGLEKVSKNNVA, EMETRVQ, QQYNRLPLS showed 0.14 (6 of 6 replicates).
The variant KLSQSFLYESRNKNSVA, GASQRES, QQYHRLPLS showed -0.40 (6 of 6 replicates).
The variant KSSQSVLYESRNVNSVA, GASTRDS, QQYHRLPLS showed 0.93 (3 of 6 replicates).
The variant KFQYSELYEERNQNSVA, GASQRLS, QQYHRLPLS showed 0.20 (6 of 6 replicates).
The variant KLMGQGDHSIAHANSIA, NVDNVDA, QQYAHLPLS showed 1.19 (6 of 6 replicates).
The variant KLSLSMSFSLEGTRAIA, AGSTRAH, QQYHRLPLT showed 0.70 (6 of 6 replicates).
The variant KISTSVVYESRNKNSVA, WASTRES, QQYHRLPLS showed 1.42 (6 of 6 replicates).
The variant KFSQSWLYESRNKNNVA, NASTRES, QQYHRLPLS showed -0.39 (6 of 6 replicates).
The variant MISQLFMYGSRKYNSVA, QASTRES, QQYDRLPLI showed 1.49 (5 of 6 replicates).
The variant SFSQSVLYESVHKNNVA, QTSTREE, QQYDHLPLS showed -0.08 (6 of 6 replicates).
The variant KSSQSLLYESRNKNSVA, WARTRES, QQYHRLPLQ showed 2.80 (3 of 6 replicates).
The variant KLSQSVWYESRNKNNVA, DASTRES, QQYHRLPLS showed -0.11 (4 of 6 replicates).
The variant KSSQSVLYESRNKNSVA, NASTRES, QQYHREPLS showed nd (0 of 6 replicates).
The variant MMSQVTGLGQRHRNNVA, QTSTRME, QQYDRLPLI showed 0.55 (6 of 6 replicates).

Repeated from above, the 6 best binders with a signal in all replicates:

CDR-L1,CDR-L2,CDR-L3,"mean, log10 nM",replicates with signal
KLSQSFLYESRNKNSVA,GASQRES,QQYHRLPLS,-0.40,6/6
KFSQSWLYESRNKNNVA,NASTRES,QQYHRLPLS,-0.39,6/6
KLSQSVLYESRNSNSVA,NASTREQ,QQYHRLPLS,-0.37,6/6
KLEQSVQYESRNKNSVA,NASTRES,QQYHRLPLS,-0.26,6/6
SFSQSVLYESVHKNNVA,QTSTREE,QQYDHLPLS,-0.08,6/6
KLSILGLHESIDKKSIA,ERSTREN,QQYHRLPLS,-0.01,6/6

The authors averaged sequences with at least three values out of six and counted those with two or fewer as poor binders.
Nonspecific signal, from three strains lacking the peptide, appeared in 4% of pairings of all light chain designs, centred on 2.64 (5% of these signals below 1.59); values are not corrected for it.
Of ten entries with the parent sequence, four were seen in most replicates (averages 0.34 to 2.37), three in one and three in none, so single entries are noisy.
Values of this round are not directly comparable with the first-round values of the same sequences.

Reference: Li et al. 2023, doi:10.1038/s41467-023-39022-2. File: FLAb, binding data.